Measurements from patent US9833424B2, “Application of fluoxetine to treatment of depigmentation diseases” (SHANDONG RUNZE PHARMACEUTICALS CO., LTD., priority 2011, dated 2017).

Tests used:
[1] = test system: A375 cells; assay: Cell migration (wound healing test) and morphology, A375 cells; conditions: 48 hours, 0.1-10 μM
[2] = test system: B16F10 cells; assay: Cell migration (wound healing test) and morphology, B16F10 cells; conditions: 48 hours, 0.1-10 μM

SMILES: CNCCC(Oc1ccc(C(F)(F)F)cc1)c1ccccc1 (centres unmarked) [fluoxetine, N-methyl-γ-[4-(trifluoromethyl)phenoxy] phenylpropylamine]
- cell morphology [1]: number of dendritic cells decreased and the cells became spindle shaped
- cell morphology [2]: number of dendritic cells decreased and the cells became spindle shaped
